For one substance, EC50 and plateau results are on record in patent publication US20230167192A1 (SUZHOU ZELGEN BIOPHARMACEUTICALS, published 2023).

In this experiment the target is human CD47 on cells (human) (UniProt Q08722). The experiment can be described thus: flow cytometry on human erythrocytes. Background: In flow cytometry, cells or beads pass a laser one at a time.

As a reminder, the EC50 is the concentration that produces a half-maximal response.

The substance positive control antibody Hu5F9 had a 50% effective concentration (EC50) of 1.95 µg/mL and a plateau of 892.
